Legend:
[1] = biological target: MAPK1(ERK2) enzyme (Homo sapiens, UniProt P28482); test: Z-Lyte Kinase Assay of ERK2; conditions: read-out: Example 18 IC50
Method: Example 18: Z-Lyte Kinase Assay of ERK2
1. Materials and Reagents:
2. Reaction Steps: Plate Map
3. Solution Preparation • 1) 1.33× Kinase Buffer: Dilute 5× Kinase Buffer to 1.33× with ddH2O • 2) 4× Test Compounds: Serially dilute the test compounds to 4 folds of the concentrations desired, keeping the DMSO concentration at 8%. The final concentrations are 1, 0.33, 0.11, 0.037, 0.012, 0.004, 0.0014, 0.00046 μM, and the final concentration of DMSO is 2%. • 3) Kinase/Peptide Mixture (P/K solution): Prepare Kinase/Peptide Mixture by diluting the kinase to 0.6 μg/ml and the Z-LYTE™ Ser/Thr3 peptide to 4 μM in 1.33× Kinase Buffer. Mix gently by pipetting. • 4) Phospho-peptide Solution (PP solution): Add 0.4 μl of Z-LYTE™ Ser/Thr3 Phospho-peptide to 99.6 μl of 1.33× Kinase Buffer. • 5) ATP Solution: Prepare ATP Solution by diluting the 10 mM of ATP in 1.33× Kinase Buffer to 100 μM. • 6) Development Solution: Dilute Development Reagent A with Development Buffer as 1:1024. 4. Reaction • 1) Kinase reaction (10 μl of Volume) • a. In a 384-well plate, add 2.5 μl of 4× test Cpds to each well except C1, C2, C3 wells Add 2.5 μl of 8% DMSO to C1, C2, C3 wells • b. Put the plate on ice • c. Add 5 μl of P/K mixture to each test Cpd wells and C1, C2 wells • d. […] Seal the plate to protect from the light and incubate the plate for 1 hour at RT (25-30° C.) • 3) Stop and read • a. […]

By UniProt entry, the sequences of proteins in these tests, tags left out.
UniProt P28482, whole entry: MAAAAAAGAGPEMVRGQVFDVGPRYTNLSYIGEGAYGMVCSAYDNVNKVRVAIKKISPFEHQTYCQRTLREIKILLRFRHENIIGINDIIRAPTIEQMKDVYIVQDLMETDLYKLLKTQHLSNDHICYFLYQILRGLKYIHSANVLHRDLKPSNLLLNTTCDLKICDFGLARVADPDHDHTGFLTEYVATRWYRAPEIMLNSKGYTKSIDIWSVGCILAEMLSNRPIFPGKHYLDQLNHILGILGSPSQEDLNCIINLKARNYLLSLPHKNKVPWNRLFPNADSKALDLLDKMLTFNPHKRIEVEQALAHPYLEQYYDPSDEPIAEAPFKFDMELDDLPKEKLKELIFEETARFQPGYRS

[2] = tested on: p-RSK (Thr359) in colo205 cells; test: p-RSK (Thr359) Acumen Assay in Colo205; conditions: read-out: Example 19 IC50, 1 hour compound incubation
Method: Example 19: p-RSK (Thr359) Acumen Assay in Colo205
• Phospho-p90RSK (Thr359) (D1E9) Rabbit mAb: cell signal, #8753 • Alexa Fluor® 488 donkey anti-rabbit IgG: invitrogen, #A-21206 • Propidium Iodide: Sigma, #p4170 • 4% Paraformaldehyde: SCRC, #DF021 • 10% Triton X-100: PIERCE, #28314 • 96-well plate (black with clear bottom): BD, #354640 • Acumen® eX3 (A Multilaser Microplate Cytometer For Enhanced High Content Screening): TTP LabTech 3. Acumen Assay Protocol • Seed 4000 cells in 100 μl 10% FBS/well into 96-well plate, incubate at 37° C., 5% CO2, overnight. • Dilute the compound to 3, 1, 0.33, 0.11, 0.037, 0.012, 0.004, 0.001 μM, keeping the DMSO concentration at 5%. Add 10 μl of diluted compound per well and incubate at 37° C., 5% CO2 for 1 hour. • Add 100 μl of 4% pre-warmed Paraformaldehyde (2% final), and incubate for 45 min at room temperature. • Remove paraformaldehyde solutions. Add 100 μl of ice-cold 0.1% Triton to fixed cells at room temperature for 30 min. • Wash twice with 150 μl PBS and incubate with 100 μl blocking buffer (1% BSA, in PBS) for 2˜3 hours at room temperature, seal the plate. • Wash once with PBS and incubate with 35 μl p-RSK (Thr359) (1:1000 dilution) overnight at 4° C. […]

CO[C@H]1COCC[C@@H]1Nc1ncc(C)c(-c2cc3n(c2)CCCn2c-3nnc2C2(C(F)(F)F)CCC2)n1 (relative stereo)
IC50 [1]: < 5 nM
IC50 [2]: > 100 nM

Source: US12492210B2, “Tricyclic compounds and their use” (HUTCHISON MEDIPHARMA LIMITED, priority 2019, dated 2025)
